Values of other authors, collected in paper PMC6004248 (Clinical cancer research : an official journal of the …, 2018).

Test system: normal human epidermal keratinocytes
Conditions: in vitro; cited from earlier work

C[C@@H](Oc1cc(-c2cnn(C3CCNCC3)c2)cnc1N)c1c(Cl)ccc(F)c1Cl [crizotinib]
effect on growth of normal human epidermal keratinocytes: inhibits growth
